These results are taken from patent publication US20160271155A1, “Vitamin Formulations” (NESTEC S.A., priority 2013, published 2016).

Where two headings read alike, the source gives them in different places. A value given as a limit tells only on which side of the number the result lay.

The conditions of this data set: for Solubility: HPLC-UV.
Setting [1] is: Water, concentration prepared 1.06 mg/mL (free acid), 56.53 mg/mL (Na2 salt).
The mark [2] stands for this setting: Methanol/Ethanol/Acetone, concentration prepared 5.31 mg/mL.
Setting [3] is: Oil/Petroleum ether, concentration prepared 8.09 mg/mL.

A word on the Solubility: it is how much of the substance goes into solution per volume. In the case of 5-methylfolate [L-5-MTHF Na2 Salt], under setting [1], the “Solubility (appearance)” value is on record as “Completely” and the Solubility is above 56.53 mg/mL.
For the substance 5-methylfolate [L-5-MTHF Free acid], the “Solubility (appearance)” value under setting [2] is “Suspension”, the “Solubility (appearance)” value under setting [3] is given as “Suspension” and the “Solubility (appearance)” value under setting [1] is reported as “Suspension”. The Solubility is reported as <0.0016 mg/mL; under setting [2], <0.0016 mg/mL; under setting [3] and <0.0016 mg/mL; under setting [1].
